Values of other authors, collected in patent US11311637B2, “Positron emitting radionuclide labeled peptides for human uPAR PET imaging” (CURASIGHT A/S, priority 2012, dated 2022).

Details: mouse, in vivo

18F-FDG
bone uptake: 2.49 % ID/g
